According to PMC9890698 (BMC Biology, 2023):
“And” between values parts separate entries of the source, which are not always exact repeats. Equal values may be shown once.

Sequences of proteins named here, by UniProt entry; tags and fusion partners are left off. A change or cut given only in a name is not applied to a line headed by its entry.
UniProt P47900: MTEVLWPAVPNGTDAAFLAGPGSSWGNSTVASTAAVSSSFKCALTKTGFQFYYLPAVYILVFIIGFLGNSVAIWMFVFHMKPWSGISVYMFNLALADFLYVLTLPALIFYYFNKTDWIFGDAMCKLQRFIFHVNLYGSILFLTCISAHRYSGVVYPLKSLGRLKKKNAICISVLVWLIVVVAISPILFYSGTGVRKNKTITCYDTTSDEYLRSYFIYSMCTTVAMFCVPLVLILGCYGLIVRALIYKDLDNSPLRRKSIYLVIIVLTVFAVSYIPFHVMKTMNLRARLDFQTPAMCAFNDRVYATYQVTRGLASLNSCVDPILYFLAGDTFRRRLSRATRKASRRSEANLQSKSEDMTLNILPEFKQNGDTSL

Target: T1, Human P2Y1-R (Homo sapiens, UniProt P47900)
T1 construct: expressed in transfected cells; host or cells: HEK293T/17
Assay: β-arrestin 2 recruitment BRET1 assay (β-arrestin 2-RLuc / P2Y1-R-Venus) in HEK293T cells
Type: cell-based
Conditions: for 2MeSADP-modulated BRET: Fig. S6c, individual replicates
Source text: We assessed β-arrestin 2 recruitment to the receptor using BRET^1 assay. The assay measures the interaction between β-arrestin 2 fused to the Renilla reniformis luciferase (RLuc) energy donor and the receptor fused to fluorescent Venus energy acceptor (Fig. 3a). The recruitment of cytosolic β-arrestin 2 to the receptor at the plasma membrane in the presence of an agonist will promote a significant increase of the BRET signal compared to the basal state, reflecting the close proximity between the β-arrestin 2 energy donor and the receptor energy acceptor [22].
Human P2Y1-R (NCBI Reference Sequence: NM_002563.2) and P2Y12-R (NCBI Reference Sequence: NM_022788.3) were fused to double Myc epitope and rat AT1-R (NCBI Reference Sequence: NM_030985.4) to HA tag in N-terminus extracellular region. Alternatively, receptors were also fused to Venus tag in C-terminus intracellular region. Plasmids encoding Gαq-RLuc8, GFP2-Gγ2 and untagged Gβ1 were previously described. ADP was purchased from Sigma-Aldrich/Merck (Darmstadt, Germany). MRS2179, MRS2279, MRS2500, and 2MeSADP were purchased from Tocris Bioscience (Bristol, UK) and luciferase substrates (coelenterazine 400a and h) from Interchim (Los Angeles, CA, USA). The Gq inhibitor (FR900359) was kindly supplied by Evi Kostenis (University of Bonn. Germany).
G protein activation and β-arrestin 2 recruitment were performed as previously described. […] BRET signal between RLuc8 and GFP2 was measured after addition of the luciferase substrate coelenterazine 400a (5 μM). […] BRET signal was recorded after incubation with coelenterazine h (5 μM) for 8 min. For kinetics studies, BRET signal between RLuc and Venus was recorded at 20-s intervals at basal state for the 2 first minutes and then for 5 min after ligand injection. For saturation curves (BRET^1), the expression level of Venus- or RLuc-tagged protein was determined by direct measurement of total fluorescence and luminescence respectively. Total fluorescence was first measured with an excitation filter at 485 nm and an emission filter at 520 nm. Then, the same sample was incubated for 8 minutes with 5 μM coelenterazine h and the total luminescence was measured. BRET^2 and BRET^1 readings were collected using a modified Infinite F500 (Tecan Group Ltd). The BRET^2 signal was calculated by the ratio of emission of GFP2 (510–540 nm) to RLuc8 (370–450 nm) and the BRET^1 signal by the ratio of emission of Venus (520–570 nm) to RLuc (370–480 nm). Sometimes, results are expressed as the Net BRET computed by deducting the BRET background signal (obtained in the presence of the energy donor alone) from the BRET signal (acquired from cells expressing both the energy donor and acceptor).

Q: Which “Effect on β-arrestin 2 recruitment at decreased (low) P2Y1-R expression” value (10 μM, 15 min, decreasing amounts of P2Y1-R-Venus vector, result in words) does the source give for “2-methylthioadenosine diphosphate [2MeSADP]” here?
A: The value was “only promoted β-arrestin 2 recruitment in cells expressing low levels of P2Y1-R”.

Q: What about the “2MeSADP-modulated BRET” value (0.1µg P2Y1-R plasmid) of the same substance?
A: Its value is 0.01234 and 0.02163 and 0.01634 and 0.02084 and 0.01126.

Q: And the “2MeSADP-modulated BRET” value (1µg P2Y1-R plasmid)?
A: Its value is -0.003984 and 0.007451 and 0.009769 and 0.006038 and 0.007665.

Q: What about the “2MeSADP-modulated BRET” value (4µg P2Y1-R plasmid) of the same substance?
A: The value was -0.008732 and 0.004234 and 0.00381 and -0.008059 and 0.009556.
